Test results as given in BindingDB's records for patent US9334290 (Bristol Myers Squibb, 2016).

Chains of the proteins cited; added tags and fusions are not shown. Lines headed by an entry give the natural chain unless they say otherwise; changes in a name come on top.
UniProt Q06187: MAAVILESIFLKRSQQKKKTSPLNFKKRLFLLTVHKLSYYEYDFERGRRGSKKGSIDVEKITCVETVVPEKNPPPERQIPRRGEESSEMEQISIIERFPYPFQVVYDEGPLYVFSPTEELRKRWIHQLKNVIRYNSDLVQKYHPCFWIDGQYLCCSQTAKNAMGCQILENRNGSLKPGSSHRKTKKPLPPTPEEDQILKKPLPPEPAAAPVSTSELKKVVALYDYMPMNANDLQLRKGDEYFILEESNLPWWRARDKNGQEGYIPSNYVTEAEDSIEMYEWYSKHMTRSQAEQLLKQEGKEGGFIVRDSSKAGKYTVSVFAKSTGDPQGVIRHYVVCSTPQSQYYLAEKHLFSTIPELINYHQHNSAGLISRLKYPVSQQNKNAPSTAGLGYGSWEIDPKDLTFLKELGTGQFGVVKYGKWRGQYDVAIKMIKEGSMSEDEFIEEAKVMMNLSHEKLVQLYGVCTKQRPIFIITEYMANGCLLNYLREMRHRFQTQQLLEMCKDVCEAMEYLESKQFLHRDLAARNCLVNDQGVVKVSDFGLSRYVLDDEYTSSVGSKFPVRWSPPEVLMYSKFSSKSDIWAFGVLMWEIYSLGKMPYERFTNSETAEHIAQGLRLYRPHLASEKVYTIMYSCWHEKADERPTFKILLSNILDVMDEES

Target: Tyrosine-protein kinase BTK (Homo sapiens, UniProt Q06187)
Test: […] After incubating at room temperature for 60 min, the reaction was terminated by adding 45 μL of 35 mM EDTA to each sample. The reaction mixture was analyzed on the Caliper LABCHIP® 3000 (Caliper, Hopkinton, Mass.) by electrophoretic separation of the fluorescent substrate and phosphorylated product.
Conditions: pH 7.4; 25 °C

IC50: 2.1 nM and 1.1 nM
SMILES: Cc1c(-c2c(Cl)cc(C(N)=O)c3[nH]c4cc(C(C)(C)O)ccc4c23)cccc1-n1c(=O)c2cccc(F)c2n(C)c1=O (single isomer, unassigned) [US9334290, 2]

“And” between values parts separate entries of the source, which are not always exact repeats. Equal values may be shown once.
